{"source": "patent US20040121305A1", "about": "“Generation of efficacy, toxicity and disease signatures and methods of use thereof” (priority 2002, published 2004)", "origin": "cited, not measured here", "conditions": "known toxins to be used for toxicity signature generation; organs known to be targeted"}
{"substance": "uranyl nitrate", "values": [{"measurement": "Target organ/organ system", "result": "kidney"}]}
